Reference: publication PMC5415407 (Structure (London, England : 1993), 2017)

Target: T1, DPF domain of MORF (Homo sapiens, UniProt Q8WYB5)
T1 sequence (Q8WYB5 211-322): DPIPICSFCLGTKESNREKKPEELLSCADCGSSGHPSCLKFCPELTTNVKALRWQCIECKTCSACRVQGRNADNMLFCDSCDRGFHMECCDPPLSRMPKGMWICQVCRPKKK
Experiment: 1H,15N HSQC NMR titration of 15N-labeled MORF DPF
Format: binding
Settings: 0.15 mM 15N-labeled MORF DPF, 1xPBS pH 6.5, 5 mM DTT, 8–10% D2O, 298K, 600 MHz

exchange regime on the NMR time scale | Substance
intermediate exchange regime | H3K14ac: histone H3 peptide (residues 1-19 of H3) acetylated at lysine 14, synthesized by Synpeptide
intermediate exchange regime | H3K14hib: histone H3 peptide (residues 1-19 of H3) 2-hydroxyisobutyrylated at lysine 14, synthesized by Synpeptide
intermediate exchange regime | H3K14su: histone H3 peptide (residues 1-19 of H3) succinylated at lysine 14, synthesized by Synpeptide
